Reference: patent publication US20230183317A1, “METHODS OF DETECTING AND TREATING LUNG DAMAGE IN RESPIRATORY-RELATED VIRAL INFECTIONS” (The Regents of the University of California, priority 2020, published 2023)

By UniProt entry, the sequences of proteins in these tests, tags left out. Residues count along the entry.
UniProt P06756, 891-1048 partner limits assumed: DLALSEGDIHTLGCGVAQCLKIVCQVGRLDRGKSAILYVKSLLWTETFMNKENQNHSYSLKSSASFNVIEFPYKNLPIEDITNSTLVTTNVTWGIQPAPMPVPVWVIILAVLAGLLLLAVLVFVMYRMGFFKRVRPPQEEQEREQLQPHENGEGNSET
UniProt P06756, 31-889 limits assumed: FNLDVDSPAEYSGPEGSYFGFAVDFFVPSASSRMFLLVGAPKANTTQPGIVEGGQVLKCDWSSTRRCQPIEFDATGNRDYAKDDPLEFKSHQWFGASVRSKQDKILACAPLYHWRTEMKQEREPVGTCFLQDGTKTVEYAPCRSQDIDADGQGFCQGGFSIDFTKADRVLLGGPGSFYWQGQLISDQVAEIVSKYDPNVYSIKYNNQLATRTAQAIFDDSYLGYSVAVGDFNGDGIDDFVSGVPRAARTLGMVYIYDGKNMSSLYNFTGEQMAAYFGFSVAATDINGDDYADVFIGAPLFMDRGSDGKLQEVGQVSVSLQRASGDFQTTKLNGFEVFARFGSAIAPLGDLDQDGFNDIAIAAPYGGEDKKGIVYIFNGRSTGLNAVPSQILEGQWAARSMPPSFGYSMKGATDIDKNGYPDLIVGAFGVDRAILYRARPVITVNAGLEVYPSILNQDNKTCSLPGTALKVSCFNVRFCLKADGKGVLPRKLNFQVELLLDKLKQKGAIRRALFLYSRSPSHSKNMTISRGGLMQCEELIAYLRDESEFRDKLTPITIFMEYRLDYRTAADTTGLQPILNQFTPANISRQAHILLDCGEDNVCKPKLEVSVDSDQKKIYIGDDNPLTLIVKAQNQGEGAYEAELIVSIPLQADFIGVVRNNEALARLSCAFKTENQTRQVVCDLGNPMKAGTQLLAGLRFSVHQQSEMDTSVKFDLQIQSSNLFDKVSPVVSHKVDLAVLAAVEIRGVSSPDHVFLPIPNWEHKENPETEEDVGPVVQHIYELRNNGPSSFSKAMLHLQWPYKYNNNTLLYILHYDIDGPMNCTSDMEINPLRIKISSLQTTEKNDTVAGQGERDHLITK
UniProt P18564, 22-788: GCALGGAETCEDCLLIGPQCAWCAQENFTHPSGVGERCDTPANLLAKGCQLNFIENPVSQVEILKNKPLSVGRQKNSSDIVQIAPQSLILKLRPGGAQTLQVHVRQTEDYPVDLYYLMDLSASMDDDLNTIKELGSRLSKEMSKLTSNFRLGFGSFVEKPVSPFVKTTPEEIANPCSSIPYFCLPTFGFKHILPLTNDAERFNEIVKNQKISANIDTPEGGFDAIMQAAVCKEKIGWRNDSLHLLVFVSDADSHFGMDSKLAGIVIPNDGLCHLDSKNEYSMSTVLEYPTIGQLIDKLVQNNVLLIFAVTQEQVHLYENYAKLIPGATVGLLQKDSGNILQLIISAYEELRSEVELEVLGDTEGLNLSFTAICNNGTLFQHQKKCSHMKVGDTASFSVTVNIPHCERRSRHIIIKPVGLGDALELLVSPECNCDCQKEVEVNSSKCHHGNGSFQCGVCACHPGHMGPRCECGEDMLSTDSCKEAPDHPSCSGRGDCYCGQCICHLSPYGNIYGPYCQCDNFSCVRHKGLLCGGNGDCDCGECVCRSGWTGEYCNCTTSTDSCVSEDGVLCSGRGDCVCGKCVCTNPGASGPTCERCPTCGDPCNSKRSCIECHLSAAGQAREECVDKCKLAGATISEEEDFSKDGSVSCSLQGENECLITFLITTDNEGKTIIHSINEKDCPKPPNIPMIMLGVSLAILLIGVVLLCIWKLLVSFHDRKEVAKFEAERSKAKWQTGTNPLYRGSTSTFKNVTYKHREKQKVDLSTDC

Legend:
[1] = Radiation dosimetry of ^18F-αvβ6-BP (OLINDA/EXM); type: in vivo, human
Protocol: All participants were scanned at 30, 60, 120, and 180 minutes post ^18F-αvβ6-BP injection. Reconstruction of the images was performed using OSEM. PET/CT image review was performed in multiple formats including axial, sagittal, coronal, fused, unfused, corrected and uncorrected datasets on a GE Advantage Workstation version 4.5 (VolumeViewer 9.5) and GE AW Server 3.2 ext3 (VolumeViewer 14 ext4). Organ specific analysis was performed using Organ Level Internal Dose Assessment/EXponential Modeling (OLINDA/EXM) version 1.1 (Vanderbuilt University) with updated weighting factors from the International Commission on Radiation Protection (ICRP) 103 (2007). Individual regions within specific organ sites were taken using 8 cm^3 (2×2×2 cm) volumes and SUVmax was recorded at all four time points for the first 19 participants. […] Radioactivity was seen throughout the gastrointestinal tract with anterograde movement over time. The average SUV value for normal lung was 0.56, the range observed was 0.3-1.0 and no significant changes were noted between the imaging times points. […] The mean effective dose for ^18F-αvβ6-BP was 0.02 mSv/MBq.
This study uses a microdose study and the actual mass of drug injected based on the 10 mCi (±20%) (molar activity >1Ci/μmole) injection dose of ^18F-αvβ6-BP is less than 50 μgrams (below 100 μgrams). […]

[2] = Vital signs before and after ^18F-αvβ6-BP injection; type: in vivo, human; details: Example 3 patient, 340 MBq i.v. bolus
Protocol: The patient was injected with ^18F-αvβ6-BP (340 MBq) as a rapid intravenous bolus. Prior to injection, blood samples were drawn. Immediately before and after the injection the patients vital signs (blood pressure, heart rate, pulse oximetry value and body temperature) were measured. The patient rested for 1 hour prior to the PET/CT scan. The PET scan was performed on a GE Discovery 690 PET/CT scanner at 2 minutes per bed position. A PET/CT acquisition of the thorax with arms up was performed with a typical low dose level CT scan (140 kV ‘smart mA’ [50-350 mA], noise index 20) of the thorax for attenuation correction. Immediately following, a second nonattenuation corrected PET scan was acquired from the skull vertex to the proximal thighs with arms up.

integrin αvβ6 [3] = target: T1, integrin αvβ6 (Homo sapiens, UniProt P06756+P18564)
integrin αvβ6 [4] = target: T1, integrin αvβ6; details: Example 3 patient
clinical = details: human, in vivo, total radioactivity

SMILES: CC(C)C[C@H](NC(=O)[C@H](CC(=O)O)NC(=O)CNC(=O)[C@H](CCCNC(=N)N)NC(=O)[C@H](CC(C)C)NC(=O)[C@H](CC(N)=O)NC(=O)[C@@H]1CCCN1C(=O)[C@@H](NC(=O)[C@H](C)NC(=O)[C@H](CC(N)=O)NC(=O)CCOCCOCCOCCOCCOCCOCCOCCOCCOCCOCCOCCOCCOCCOCCOCCOCCOCCOCCOCCOCCOCCOCCOCCOCCOCCOCCOCCOCCNC(=O)c1ccc(F)cc1)C(C)C)C(=O)N[C@@H](CCC(N)=O)C(=O)N[C@H](C(=O)N[C@@H](CC(C)C)C(=O)N[C@@H](C)C(=O)N[C@@H](CCC(N)=O)C(=O)N[C@@H](CCCNC(=N)N)C(=O)N[C@H](C(=O)N[C@@H](C)C(=O)N[C@@H](CCCNC(=N)N)C(=O)N[C@H](C(=O)NCCOCCOCCOCCOCCOCCOCCOCCOCCOCCOCCOCCOCCOCCOCCOCCOCCOCCOCCOCCOCCOCCOCCOCCOCCOCCOCCOCCOCCC(N)=O)[C@@H](C)O)C(C)C)C(C)C [^18F-αvβ6-BP, PEG28-[A20FMDV2(K16R)]-PEG28]
- mean effective dose ([1]; OLINDA/EXM 1.1, ICRP 103 weighting factors): 0.02 mSv/MBq
- effective dose ([1]; maximum injected dose 10 mCi/370 MBq): 7.41 mSv
- vital signs during the study [2]: No changes in vital signs
- background uptake in normal brain, lungs, liver and osseous skeleton (integrin αvβ6 [3]; PET images, 26 subjects, words): low background uptake
- radioactivity in pituitary, lacrimal glands, salivary glands, thyroid, esophagus, stomach, small intestine, large intestine, kidneys, pancreas, bladder, uterus, prostate gland (integrin αvβ6 [3]; PET, words): Detectable radioactivity
- uptake in the brain, lungs and liver (integrin αvβ6 [3]; PET, words): Very low/trace uptake
- elimination of radioactivity (integrin αvβ6 [3]; over time, via kidneys): continuous elimination via urine into the bladder
- SUVmax in regions of normal lung parenchyma (integrin αvβ6 [4]; 1 h after 340 MBq i.v.): 0.8-1.0
- uptake in normal lung parenchyma (integrin αvβ6 [4]; words): Minimal uptake
- SUV (clinical; SUV range observed for normal lung): 0.3 SUV
- SUV (clinical; average SUV value for normal lung, SUVmax in 8 cm^3 volumes, 30, 60, 120, 180 min post injection, first 19 participants): 0.56 SUV
- SUV (clinical; lung carcinoma SUV range, abnormalities noted in the lung): 6 SUV
- SUV (clinical; lung metastasis SUV range, abnormalities noted in the lung): 2.5 SUV
- SUV (clinical; suspect fibrosis SUV range, abnormalities noted in the lung): 2 SUV
